Source: publication PMC2685083 (Nucleic Acids Research, 2009)

T1: δ subunit of the DnaX clamp loader complex (E. coli, UniProt P28630 1-343)
T1 sequence: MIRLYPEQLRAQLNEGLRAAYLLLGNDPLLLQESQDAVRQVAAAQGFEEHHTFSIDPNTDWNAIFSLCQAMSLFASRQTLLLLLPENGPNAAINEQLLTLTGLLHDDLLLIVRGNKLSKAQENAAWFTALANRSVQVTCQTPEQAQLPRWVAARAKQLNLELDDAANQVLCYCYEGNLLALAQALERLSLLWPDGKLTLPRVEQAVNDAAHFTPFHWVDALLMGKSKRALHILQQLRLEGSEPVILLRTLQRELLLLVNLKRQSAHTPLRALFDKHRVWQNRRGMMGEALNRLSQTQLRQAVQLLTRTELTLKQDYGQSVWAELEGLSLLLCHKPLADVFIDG

B1: myc-tagged β^+ homodimer (natural protein)
chain: MKFTVEREHLLKPLQQVSGPLGGRPTLPILGNLLLQVADGTLSLTGTDLEMEMVARVALVQPHEPGATTVPARKFFDICRGLPEGAEIAVQLEGERMLVRSGRSRFSLSTLPAADFPNLDDWQSEVEFTLPQATMKRLIEATQFSMAHQDVRYYLNGMLFETEGEELRTVATDGHRLAVCSMPIGQSLPSHSVIVPRKGVIELMRMLDGGDNPLRVQIGSNNIRAHVGDFIFTSKLVDGRFPDYRRVLPKNPDKHLEAGCDLLKQAFARAAILSNEKFRGVRLYVSENQLKITANNPEQEEAEEILDVTYSGAEMEIGFNVSYVLDVLNALKCENVRMMLTDSVSSVQIEDAASQSAAYVVMPMRL
B2: α catalytic subunit of Pol III (enzyme)
chain: MSEPRFVHLRVHSDYSMIDGLAKTAPLVKKAAALGMPALAITDFTNLCGLVKFYGAGHGAGIKPIVGADFNVQCDLLGDELTHLTVLAANNTGYQNLTLLISKAYQRGYGAAGPIIDRDWLIELNEGLILLSGGRMGDVGRSLLRGNSALVDECVAFYEEHFPDRYFLELIRTGRPDEESYLHAAVELAEARGLPVVATNDVRFIDSSDFDAHEIRVAIHDGFTLDDPKRPRNYSPQQYMRSEEEMCELFADIPEALANTVEIAKRCNVTVRLGEYFLPQFPTGDMSTEDYLVKRAKEGLEERLAFLFPDEEERLKRRPEYDERLETELQVINQMGFPGYFLIVMEFIQWSKDNGVPVGPGRGSGAGSLVAYALKITDLDPLEFDLLFERFLNPERVSMPDFDVDFCMEKRDQVIEHVADMYGRDAVSQIITFGTMAAKAVIRDVGRVLGHPYGFVDRISKLIPPDPGMTLAKAFEAEPQLPEIYEADEEVKALIDMARKLEGVTRNAGKHAGGVVIAPTKITDFAPLYCDEEGKHPVTQFDKSDVEYAGLVKFDFLGLRTLTIINWALEMINKRRAKNGEPPLDIAAIPLDDKKSFDMLQRSETTAVFQLESRGMKDLIKRLQPDCFEDMIALVALFRPGPLQSGMVDNFIDRKHGREEISYPDVQWQHESLKPVLEPTYGIILYQEQVMQIAQVLSGYTLGGADMLRRAMGKKKPEEMAKQRSVFAEGAEKNGINAELAMKIFDLVEKFAGYGFNKSHSAAYALVSYQTLWLKAHYPAEFMAAVMTADMDNTEKVVGLVDECWRMGLKILPPDINSGLYHFHVNDDGEIVYGIGAIKGVGEGPIEAIIEARNKGGYFRELFDLCARTDTKKLNRRVLEKLIMSGAFDRLGPHRAALMNSLGDALKAADQHAKAEAIGQADMFGVLAEEPEQIEQSYASCQPWPEQVVLDGERETLGLYLTGHPINQYLKEIERYVGGVRLKDMHPTERGKVITAAGLVVAARVMVTKRGNRIGICTLDDRSGRLEVMLFTDALDKYQQLLEKDRILIVSGQVSFDDFSGGLKMTAREVMDIDEAREKYARGLAISLTDRQIDDQLLNRLRQSLEPHRSGTIPVHLYYQRADARARLRFGATWRVSPSDRLLNDLRGLIGSEQVELEFD
B3: his6-tagged β^+ homodimer (natural protein)
chain: B1 chain

What was measured:
[1] = biological target: T1, δ subunit of the DnaX clamp loader …; experiment: ITC
[2] = biological target: B3; experiment: SPR
[3] = biological target: B2; experiment: SPR

Binder: B1
- KD of the first δ (sequential binding sites model) [1]: 259 nM
- KD of the second δ (sequential binding sites model) [1]: 4000 nM

Binder: B2
- stoichiometry N [2]: 1

Binder: B3
- Kd [3]: 108 nM
- koff [3]: 0.00726 s⁻¹
- kon [3]: 67500 M⁻¹ s⁻¹
